Assay results reported in patent US10501436B2, “Compounds and methods of use” (Medivation Technologies LLC, priority 2014, dated 2019).

Test system: p-SMAD2
Test: p-SMAD2 inhibition, Western Blot Analysis in MDA-MB-231 cells treated with TGFβ
Format: cell-based
Conditions: TGFβ 2 ng/mL, samples run in triplicate; for Average p-SMAD2 inhibition @ 0.1 μM (% Inh) / inhibition at 0.1 µM: 0.1 μM compound; for Average p-SMAD2 inhibition @ 0.5 μM (% Inh) / inhibition at 0.5 µM: 0.5 μM compound; for inhibition at 0.1 µM / inhibition at 0.5 µM: Homo sapiens; for inhibition at 0.1 µM: read-out: Average p-SMAD2 inhibition @ 0.1 μM (% Inh); for inhibition at 0.5 µM: read-out: Average p-SMAD2 inhibition @ 0.5 μM (% Inh)

Row | Compound | Average p-SMAD2 inhibition @ 0.1 μM (% Inh) | Average p-SMAD2 inhibition @ 0.5 μM (% Inh) | inhibition at 0.1 µM [%] | inhibition at 0.5 µM [%]
1 | CC(O)CNC(=O)c1cnccc1Nc1cc(-c2cc(Cl)ccc2F)ncc1C(C)C (single isomer, unassigned) [Compound 2a] | 26.33 | 77.67 |  | 
2 | CCc1cnc(-c2cc(Cl)ccc2F)cc1Nc1ccncc1C(=O)NCC(C)O (single isomer, unassigned) [Compound 11a] | 44.67 | 96.00 |  | 
3 | CC(O)CNC(=O)c1cncnc1Nc1cc(-c2cc(Cl)ccc2F)ncc1C(C)C (single isomer, unassigned) [Compound 12a] | 64.33 | 93.00 |  | 
4 | COc1cnc(-c2cc(Cl)ccc2F)cc1Nc1ccncc1C(=O)NCC(C)O (single isomer, unassigned) [Compound 13a] | 59.00 | 93.67 |  | 
5 | COC(C)(C)c1cnc(-c2cc(Cl)ccc2F)cc1Nc1ccncc1C(=O)NCC(C)O (single isomer, unassigned) [Compound 17a, 4-[[2-(5-chloro-2-fluoro-phenyl)-5-(1-methoxy-1-methyl-ethyl)-4-pyridyl]amino]-N-(2-hydroxypropyl)pyridine-3-carboxamide] |  |  | 25.3 | 81.7
6 | C=C(C)c1cnc(-c2cc(Cl)ccc2F)cc1Nc1ccncc1C(=O)N[C@@H](CC)CO (single isomer, unassigned) [Compound 24a] |  |  | 17 | 68.3
7 | C=C(C)c1cnc(-c2cc(Cl)ccc2F)cc1Nc1ncncc1C(=O)NC[C@H](C)O [Compound 4a, (S)-4-(2-(5-chloro-2-fluorophenyl)-5-(prop-1-en-2-yl)pyridin-4-ylamino)-N-(2-hydroxypropyl)pyrimidine-5-carboxamide] |  |  | 72.7 | 99.7
8 | CC(C)c1cnc(-c2cc(Cl)ccc2F)cc1Nc1ccncc1C(=O)N[C@@H](C)CO [Compound 6a, (S)-4-(2-(5-chloro-2-fluorophenyl)-5-isopropylpyridin-4-ylamino)-N-(1-hydroxypropan-2-yl)nicotinamide] |  |  | 53.7 | 98.3
